Biological target: Malic enzyme 2 (ME2) (Homo sapiens, UniProt P23368)

The chains behind the UniProt entries cited, without tags or fusion partners. Residues count along the entry.
UniProt P23368, 19-584: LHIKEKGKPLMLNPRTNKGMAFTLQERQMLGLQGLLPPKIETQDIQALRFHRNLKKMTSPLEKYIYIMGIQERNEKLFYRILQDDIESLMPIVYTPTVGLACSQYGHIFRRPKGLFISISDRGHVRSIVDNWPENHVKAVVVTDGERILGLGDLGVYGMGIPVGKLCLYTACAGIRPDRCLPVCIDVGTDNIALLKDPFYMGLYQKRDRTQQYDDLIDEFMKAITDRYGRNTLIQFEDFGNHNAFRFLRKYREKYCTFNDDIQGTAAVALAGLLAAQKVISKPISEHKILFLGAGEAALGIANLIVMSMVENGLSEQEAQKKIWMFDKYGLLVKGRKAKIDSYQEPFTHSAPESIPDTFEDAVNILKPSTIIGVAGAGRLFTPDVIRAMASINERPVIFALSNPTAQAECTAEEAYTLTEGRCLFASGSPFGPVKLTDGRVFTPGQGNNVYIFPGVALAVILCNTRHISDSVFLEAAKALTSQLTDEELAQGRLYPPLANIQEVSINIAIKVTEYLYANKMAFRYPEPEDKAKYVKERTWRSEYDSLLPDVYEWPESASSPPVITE

SMILES: NC(=O)c1ccc[n+]([C@@H]2O[C@H](COP(=O)([O-])OP(=O)(O)OC[C@H]3O[C@@H](n4cnc5c(N)ncnc54)[C@H](O)[C@@H]3O)[C@@H](O)[C@H]2O)c1 [NAD^+]
- X-ray crystal structure of ME2/NAD+ holoenzyme at 1.89 Å: with NAD^+ located within each active site cavity and buried within the tetramer interface
